Assay results as given in patent US6645774B1 (Synaptic Pharmaceutical Corporation, priority 1994, dated 2003).

Protein sequences, listed by entry. Tags and fused reporters are not part of them.
UniProt P35367, whole entry: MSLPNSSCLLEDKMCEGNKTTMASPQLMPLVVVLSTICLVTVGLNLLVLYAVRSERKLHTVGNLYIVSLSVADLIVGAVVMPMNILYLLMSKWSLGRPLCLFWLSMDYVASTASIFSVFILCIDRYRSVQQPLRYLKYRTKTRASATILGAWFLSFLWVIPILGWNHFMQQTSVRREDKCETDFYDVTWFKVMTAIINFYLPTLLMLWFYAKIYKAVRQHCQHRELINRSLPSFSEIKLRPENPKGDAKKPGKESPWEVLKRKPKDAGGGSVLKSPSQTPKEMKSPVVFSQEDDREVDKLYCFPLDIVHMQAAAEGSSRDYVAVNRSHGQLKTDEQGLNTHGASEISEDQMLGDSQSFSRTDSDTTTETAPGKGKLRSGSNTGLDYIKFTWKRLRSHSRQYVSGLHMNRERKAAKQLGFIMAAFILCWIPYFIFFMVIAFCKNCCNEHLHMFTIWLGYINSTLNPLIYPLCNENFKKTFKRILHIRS
UniProt P25021, whole entry: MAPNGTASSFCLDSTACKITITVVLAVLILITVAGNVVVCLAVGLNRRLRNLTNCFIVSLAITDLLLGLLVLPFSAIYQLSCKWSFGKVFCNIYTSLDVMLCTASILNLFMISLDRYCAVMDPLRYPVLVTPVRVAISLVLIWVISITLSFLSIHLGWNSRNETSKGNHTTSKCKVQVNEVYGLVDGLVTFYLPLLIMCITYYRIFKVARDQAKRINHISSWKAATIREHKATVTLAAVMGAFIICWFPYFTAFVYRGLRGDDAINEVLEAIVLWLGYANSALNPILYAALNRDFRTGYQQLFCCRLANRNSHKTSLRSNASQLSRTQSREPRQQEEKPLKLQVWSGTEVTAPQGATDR

Tests used:
[1] = molecular target: human histamine H1 receptor (Homo sapiens, UniProt P35367); assay: biochemical
[2] = molecular target: human histamine H2 receptor (Homo sapiens, UniProt P25021); assay: biochemical

SMILES | Ki [1] [nM] | Ki [2] [nM]
Cl.Nc1nc(NC[C@H]2CC[C@H](CNS(=O)(=O)c3cccc4ccccc34)CC2)nc2ccccc12 [Compound 5, trans-Naphthalene-1-sulfonic Acid {4-[(4-amino-quinazolin-2-ylamino)-methyl]-cyclohexylmethyl}-amide Hydrochloride] | 224 | 209
Cl.c1ccc(Nc2nc(Nc3ccccc3)c3ccccc3n2)cc1 [Compound 1, 2,4-Diphenylamino-quinazoline Hydrochloride] | 2570 | 479
